Where “and” joins values, the source holds several entries; their conditions need not be identical. Equal values may be shown once.
What was measured:
[1] = biological target: 5-hydroxytryptamine receptor 2B (Homo sapiens, UniProt P41595)
[2] = biological target: 5-hydroxytryptamine receptor 2A (Rattus norvegicus, UniProt P14842)

Protein sequences, listed by entry. Tags and fused reporters are not part of them.
UniProt P41595, whole entry: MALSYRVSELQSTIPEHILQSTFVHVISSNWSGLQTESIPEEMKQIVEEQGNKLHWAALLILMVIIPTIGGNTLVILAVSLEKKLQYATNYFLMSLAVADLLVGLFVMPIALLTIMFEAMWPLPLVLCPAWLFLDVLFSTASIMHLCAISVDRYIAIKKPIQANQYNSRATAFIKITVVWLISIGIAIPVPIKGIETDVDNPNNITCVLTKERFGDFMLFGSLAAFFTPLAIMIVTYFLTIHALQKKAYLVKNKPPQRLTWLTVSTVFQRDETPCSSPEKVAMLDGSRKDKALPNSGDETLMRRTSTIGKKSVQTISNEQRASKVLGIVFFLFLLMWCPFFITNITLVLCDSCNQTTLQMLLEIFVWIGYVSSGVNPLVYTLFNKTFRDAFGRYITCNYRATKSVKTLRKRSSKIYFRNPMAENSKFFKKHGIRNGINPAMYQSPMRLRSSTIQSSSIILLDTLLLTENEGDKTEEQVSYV
UniProt P14842, whole entry: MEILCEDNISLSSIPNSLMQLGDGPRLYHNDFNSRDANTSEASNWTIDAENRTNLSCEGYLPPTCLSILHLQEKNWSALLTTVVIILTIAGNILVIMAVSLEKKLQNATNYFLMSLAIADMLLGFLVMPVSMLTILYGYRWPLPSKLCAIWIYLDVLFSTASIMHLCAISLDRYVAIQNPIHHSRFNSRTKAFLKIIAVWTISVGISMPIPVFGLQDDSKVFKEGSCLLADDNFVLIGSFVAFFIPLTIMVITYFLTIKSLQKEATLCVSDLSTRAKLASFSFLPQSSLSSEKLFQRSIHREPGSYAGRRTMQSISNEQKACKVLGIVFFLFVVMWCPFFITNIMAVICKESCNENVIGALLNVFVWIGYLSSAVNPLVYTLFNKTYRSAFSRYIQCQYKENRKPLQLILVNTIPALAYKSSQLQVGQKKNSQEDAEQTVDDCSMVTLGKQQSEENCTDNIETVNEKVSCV

Compound: CCNC(C)Cc1cccc(C(F)(F)F)c1 (configuration not stated) [NSC_3337]
- Ki [1]: 5.1 µM and 5.71 µM

Compound: CN1C[C@H](C(=O)N[C@]2(C)O[C@@]3(O)[C@@H]4CCCN4C(=O)[C@H](Cc4ccccc4)N3C2=O)C=C2c3cccc4[nH]cc(c34)C[C@H]21 [12'-hydroxy-2'-methyl-5'alpha-(phenylmethyl)ergotaman-3',6',18-trione]
- Ki [2]: 9 nM
